What was measured:
[1] = test system: cultured human mast cells; assay: Degranulation inhibition test using cultured human mast cells (IgE cross-linking, β-Hexosaminidase release); type: cell-based; settings: read-out: human degranulation ave. IC50, anti-hIgE stimulation, β-Hexosaminidase index, average
Description: Degranulation Inhibition Test Using Cultured Human Mast Cells
(1) Separation of Hematopoietic Stem Cells;
After 10 to 60 mL of umbilical cord blood collected with heparin was diluted with an equivalent amount of buffer (0.5% BSA, 2 mM EDTA/PBS-), it was superposed on Ficoll-Paque (Amersham Pharmacia Biotech) (Ficoll/Blood (1:2)) and mononuclear leukocyte fraction was collected by centrifuging it at 400 G (1350 rpm) 4° C. for 30 minutes. After centrifugal washing (1500 rpm, 5 min, 4° C.×3) with buffer, the number of cells was counted and 0.1 mL of CD34 Progenitor Cell Isolation Kit (Miltenyi Biotec), Reagent A1 (Fc blocking) was added for 1×10^8 cells. After agitation, 0.1 mL of Reagent A2 (CD34 antibody-hapten) was added (final volume 0.5 mL/1×10^8 cells) and incubated at 9° C. for further 15 minutes after agitation. […]
10 μL of a compound 10-fold diluted with IMDM after dissolved in DMSO (DMSO final concentration 0.1%) was added and reacted at 37° C. for 10 minutes. […] After centrifugation, 50 μL/well of the supernatant was collected and stored at −40° C. untill the quantity of degranulation was measured. The measurement of quantity of degranulation was performed using enzymatic activity of β-Hexosaminidase contained in the granulates as an index. […]

[2] = target: GST-Syk Full Protein (human) (Homo sapiens, UniProt P43405); assay: Syk kinase inhibition test (HTRF method); type: biochemical; settings: read-out: sykHTRF ave IC50, 100 μM ATP, 30 min room temperature, average
Description: Syk Kinase Inhibition Test (HTRF Method)
After the compounds were serially diluted with dimethylsulfoxide (DMSO), 10 μL of those 10-fold diluted with kinase buffer (20 mM HEPES pH 7.0, 10 mM MgCl2, 50 mM NaCl, 1 mM 2-ME, 0.05% BSA) was added to opti-plate HTRF-96 (Packard) (final DMSO concentration: 2%). […] After allowed to stand still at room temperature for 1 hour, inhibitory effect of a compound against Syk kinase enzymatic activity was evaluated by measuring 665/620 fluorescence ratio to excitation light at 337 nm by ARVO (Wallac).

Cc1ccnc(Nc2cccc(-c3cnc([C@H]4CC[C@H](C(=O)N5CCC(=O)CC5)CC4)s3)n2)c1
IC50 [1]: > 1000 nM | IC50 [2]: 100 to 1000 nM
